ChEMBL document CHEMBL3886737, “5-chloro-2-difluoromethoxyphenyl pyrazolopyrimidine compounds, compositions and methods of use thereof” (2016)

Sequences of proteins named here, by UniProt entry; tags and fusion partners are left off. A change or cut given only in a name is not applied to a line headed by its entry.
UniProt O60674: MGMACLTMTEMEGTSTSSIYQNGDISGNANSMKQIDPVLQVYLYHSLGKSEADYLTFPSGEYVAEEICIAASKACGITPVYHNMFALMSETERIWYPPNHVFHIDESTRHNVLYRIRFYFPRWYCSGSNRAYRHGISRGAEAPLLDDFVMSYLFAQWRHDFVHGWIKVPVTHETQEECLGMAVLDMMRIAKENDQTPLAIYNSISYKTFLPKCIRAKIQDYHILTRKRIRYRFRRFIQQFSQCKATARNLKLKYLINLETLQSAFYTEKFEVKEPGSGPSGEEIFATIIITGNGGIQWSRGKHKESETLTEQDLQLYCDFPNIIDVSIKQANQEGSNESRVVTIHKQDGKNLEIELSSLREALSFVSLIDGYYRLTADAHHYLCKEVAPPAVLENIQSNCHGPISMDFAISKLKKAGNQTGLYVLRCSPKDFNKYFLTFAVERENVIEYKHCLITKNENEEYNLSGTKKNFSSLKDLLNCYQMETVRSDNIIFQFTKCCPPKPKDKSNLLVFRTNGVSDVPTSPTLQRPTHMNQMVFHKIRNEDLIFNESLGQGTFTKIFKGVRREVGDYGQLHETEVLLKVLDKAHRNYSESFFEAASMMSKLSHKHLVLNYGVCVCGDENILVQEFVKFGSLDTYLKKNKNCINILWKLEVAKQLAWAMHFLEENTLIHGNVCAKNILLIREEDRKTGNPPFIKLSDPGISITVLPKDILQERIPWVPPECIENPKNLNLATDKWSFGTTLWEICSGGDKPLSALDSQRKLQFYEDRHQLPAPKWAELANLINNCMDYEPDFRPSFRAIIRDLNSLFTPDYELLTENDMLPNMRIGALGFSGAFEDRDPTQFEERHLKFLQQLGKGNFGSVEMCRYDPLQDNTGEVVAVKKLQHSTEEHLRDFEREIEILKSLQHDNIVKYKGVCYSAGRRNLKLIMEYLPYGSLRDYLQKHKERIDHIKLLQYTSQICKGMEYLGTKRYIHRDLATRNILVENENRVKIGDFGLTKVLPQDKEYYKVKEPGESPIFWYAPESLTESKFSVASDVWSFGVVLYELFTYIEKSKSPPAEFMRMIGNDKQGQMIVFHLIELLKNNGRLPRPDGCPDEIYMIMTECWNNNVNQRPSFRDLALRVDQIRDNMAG
UniProt P23458: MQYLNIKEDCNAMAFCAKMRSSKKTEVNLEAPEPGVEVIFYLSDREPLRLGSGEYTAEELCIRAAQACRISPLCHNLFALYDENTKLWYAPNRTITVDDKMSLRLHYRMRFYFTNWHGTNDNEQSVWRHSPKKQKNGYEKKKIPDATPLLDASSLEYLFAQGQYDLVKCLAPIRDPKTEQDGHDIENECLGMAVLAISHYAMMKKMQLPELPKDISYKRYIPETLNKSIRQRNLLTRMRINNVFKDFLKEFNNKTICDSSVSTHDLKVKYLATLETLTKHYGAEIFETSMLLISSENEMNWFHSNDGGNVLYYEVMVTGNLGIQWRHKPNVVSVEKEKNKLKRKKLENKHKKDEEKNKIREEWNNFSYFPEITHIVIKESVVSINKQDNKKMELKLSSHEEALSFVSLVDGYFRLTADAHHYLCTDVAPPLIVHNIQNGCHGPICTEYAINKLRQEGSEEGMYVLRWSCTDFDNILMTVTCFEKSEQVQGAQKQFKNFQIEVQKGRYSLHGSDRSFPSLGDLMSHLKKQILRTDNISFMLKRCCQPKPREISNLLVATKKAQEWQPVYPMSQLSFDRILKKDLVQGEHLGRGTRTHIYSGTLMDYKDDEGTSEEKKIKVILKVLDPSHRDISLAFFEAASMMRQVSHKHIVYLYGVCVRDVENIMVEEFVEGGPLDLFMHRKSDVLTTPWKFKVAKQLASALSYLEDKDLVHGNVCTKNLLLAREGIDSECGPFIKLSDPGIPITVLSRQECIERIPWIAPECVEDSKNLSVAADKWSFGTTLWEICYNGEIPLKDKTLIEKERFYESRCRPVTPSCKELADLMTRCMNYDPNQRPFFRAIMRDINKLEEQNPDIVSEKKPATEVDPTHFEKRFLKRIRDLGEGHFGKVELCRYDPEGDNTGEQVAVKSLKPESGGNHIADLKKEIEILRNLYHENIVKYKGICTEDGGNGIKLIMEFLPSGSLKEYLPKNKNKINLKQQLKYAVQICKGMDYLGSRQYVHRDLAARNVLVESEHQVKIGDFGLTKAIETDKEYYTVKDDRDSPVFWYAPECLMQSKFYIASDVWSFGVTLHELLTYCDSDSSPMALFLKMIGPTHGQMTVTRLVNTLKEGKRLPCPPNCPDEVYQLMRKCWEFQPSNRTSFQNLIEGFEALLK

Experiments:
[1] = target: Tyrosine-protein kinase JAK2 (Homo sapiens, UniProt O60674); test: (§1) JAK Enzyme Assay: The activity of the isolated recombinant JAK1 and JAK2 kinase domain was measured by monitoring phosphorylation of a peptide derived from JAK3 ([…] fluorescently labeled on the N-terminus with 5-carboxyfluorescein) using the Caliper LabChip® technology (Caliper Life Sciences, Hopkinton, Mass.). […] Reactions were incubated at 22° C. in 384-well polypropylene microtiter plates for 30 minutes and then stopped by addition of 25 μL of an EDTA containing solution (100 mM HEPES buffer (pH 7.2), 0.015% Brij-35, 150 mM EDTA), resulting in a final EDTA concentration of 50 mM. After termination of the kinase reaction, the proportion of phosphorylated product was determined as a fraction of total peptide substrate using the Caliper LabChip® 3000 according to the manufacturer's specifications.
[2] = target: Tyrosine-protein kinase JAK1 (Homo sapiens, UniProt P23458); test: as §1

Structure (SMILES)	Ki [1] [pM]	Ki [2] [pM]
CN1CCC(n2cc(NC(=O)c3c(N)nn4cccnc34)c(-c3cc(Cl)ccc3OC(F)F)n2)CC1	180	
CN(CC1(C#N)CC1)C1CCN(C(=O)Cn2cc(NC(=O)c3cnn4cccnc34)c(-c3cc(Cl)ccc3OC(F)F)n2)CC1		240
CCOC(=O)CCN1CCN(C(=O)Cn2cc(NC(=O)c3cnn4cccnc34)c(-c3cc(Cl)ccc3OC(F)F)n2)CC1	910	
Nc1nn2cccnc2c1C(=O)Nc1cn(CC(=O)N2CC[C@@H](O)C2)nc1-c1cc(Cl)ccc1OC(F)F		210
